Measured values: paper PMC8308721 (Pharmaceutics, 2021)

Settings: 130 mg/kg vs 10 mg/kg

CN1CC[C@]23c4c5ccc(O)c4O[C@H]2[C@@H](O)C=C[C@H]3[C@H]1C5 [morphine]
maximum tolerated dose relative to therapeutic dose (10 mg/kg): 13 fold
